Results taken from patent US9145373B2, “Certain kynurenine-3-monooxygenase inhibitors, pharmaceutical compositions, and methods of use thereof” (CHDI FOUNDATION, INC., priority 2008, dated 2015).

Amino acid sequences for entries named in this document (tags omitted). A change or cut given only in a name is not applied to a line headed by its entry.
UniProt Q91WN4: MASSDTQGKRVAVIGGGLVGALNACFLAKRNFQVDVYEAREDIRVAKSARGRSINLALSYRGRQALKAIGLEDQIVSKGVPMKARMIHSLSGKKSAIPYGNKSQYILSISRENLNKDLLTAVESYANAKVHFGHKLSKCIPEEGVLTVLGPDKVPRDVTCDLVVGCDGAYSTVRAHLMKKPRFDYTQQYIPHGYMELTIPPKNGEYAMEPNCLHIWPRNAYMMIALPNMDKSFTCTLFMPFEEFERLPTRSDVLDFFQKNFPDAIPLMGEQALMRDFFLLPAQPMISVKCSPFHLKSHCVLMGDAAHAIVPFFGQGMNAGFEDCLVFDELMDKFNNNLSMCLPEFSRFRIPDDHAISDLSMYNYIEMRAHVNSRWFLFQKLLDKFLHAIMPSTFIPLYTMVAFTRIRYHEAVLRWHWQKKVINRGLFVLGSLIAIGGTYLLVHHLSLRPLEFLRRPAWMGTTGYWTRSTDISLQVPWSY

Molecular target: T1, KMO mouse enzyme (Mus musculus, UniProt Q91WN4)
T1 construct: KMO enzyme prepared at Evotec from mouse liver (4-6 weeks old) via mitochondria isolation; from tissue; host or cells: mouse liver (4-6 weeks old), mitochondria isolation, prepared at Evotec
Test: KMO mouse enzyme assay: L-Kynurenine hydroxylation to 3-Hydroxy-Kynurenine monitored by LC/MS (MRM)
Format: biochemical
Details: compound at 10 μM, KMO enzyme from mouse liver mitochondria
Method: A method of monitoring L-Kynurenine (KYN) hydroxylation to form 3-Hydroxy-Kynurenine (3OH-KYN) by LC/MS is described. Product is quantified by multiple reaction monitoring (MRM method).
• Compound: Stock concentrations: 10 mM in 100% DMSO • Enzyme: KMO enzyme prepared at Evotec from mouse liver (4-6 weeks old) via mitochondria isolation as described in the literature • Substrate: L-Kynurenine (Sigma: Cat# K3750, stock concentration: 10 mM in 100 mM potassium phosphate buffer, pH 7.4) Assay Conditions: […]

| SMILES | inhibition at 10 µM (read-out: INH.Mouse @ 10 μM) | INH.Mouse @ 10 μM |
| --- | --- | --- |
| O=C(O)c1cc(-c2ccc(Cl)c(Cl)c2)ncn1 [6-(3,4-dichloro-phenyl)-pyrimidine-4-carboxylic acid sodium salt] | 100% |  |
| O=C(O)c1cc(-c2ccc(Cl)c(Cl)c2)ncn1 [6-(3,4-Dichloro-phenyl)-pyrimidine-4-carboxylic acid] |  | 105.5 |

Structures can show the parent of a compound that is named as a salt.
